The text below walks through data of article PMC10901892 (Scientific Reports, 2024).

Data set [1] deals with isolated mouse liver mitochondria. The note with it: succinate and oligomycin A, nonlinear fit in GraphPad Prism.

On to `O=[N+]([O-])c1cccc([N+](=O)[O-])c1O`, for which the “EC50, fold stimulation of oxygen consumption” value in data set [1] was 136 µM. Also, for the setting “male C57BL/6 mice, 5 mg/kg, two hours”, the “drug tissue concentration, heart” value was “BLQ”. Moreover, the “health of animals during the study” value (mice, 5 mg/kg) is reported as “healthy throughout the study duration”. In addition, under “mice, 5 mg/kg intraperitoneally”, the “tissue concentrations (in words)” value is “highest concentrations found in the spleen and lung”.
